# scFv variants of Ab-14 (light chain) against a SARS-CoV-2 spike peptide

Data: MIT Lincoln Laboratory AlphaSeq set, Li et al. 2023, doi:10.1038/s41467-023-39022-2, as distributed in FLAb.

Binding partner: SARS-CoV-2 spike HR2 peptide, sequence PDVDLGDISGINAS.

The variants keep the heavy chain, the linker and the frameworks of Ab-14 (scFv order VH, three GGGGS repeats, VL).
VH: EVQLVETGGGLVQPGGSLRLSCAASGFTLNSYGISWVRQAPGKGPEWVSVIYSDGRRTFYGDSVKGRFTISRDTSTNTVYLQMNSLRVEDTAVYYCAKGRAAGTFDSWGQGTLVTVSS
VL: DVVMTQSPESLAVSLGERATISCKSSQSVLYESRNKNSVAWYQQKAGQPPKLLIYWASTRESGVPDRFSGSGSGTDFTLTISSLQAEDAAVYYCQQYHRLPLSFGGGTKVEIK

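Designed CDR sequences, proposed from the first random library and measured here. Their group label is 14L_GP_HC (GP: Gaussian process model; HC: hill climbing; a sequence that several methods proposed may carry one label only). The assay is AlphaSeq: two haploid yeast populations carry antibody and antigen on their surface. Binding brings cells together so that they mate, and sequencing counts the barcode pairs among the diploids. The ratio of observed to expected reads was calibrated, replicate by replicate, on BCL2-family standards whose Kd was known from biolayer interferometry. Mating was done six times.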

Sequences are complete VL domains. Affinities are written as log10 Kd with Kd in nM; a lower number is a better binder. Averages over replicates are reported, and they cover detected replicates only. Where no diploid with the target was found in that replicate, the entry reads "n.d.": below detection, most likely a poor binder, though not proof of it.

VL,log10 Kd (nM) by replicate,"log10 Kd (nM), mean",empty controls
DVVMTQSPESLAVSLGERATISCKSSQSELYESGNKNSVAWYQQKAGQPPKLLIYHASTREDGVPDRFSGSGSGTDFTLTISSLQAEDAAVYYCQQYHRLPLSFGGGTKVEIK,1.47 / 1.12 / n.d. / 1.75 / n.d. / 0.49,1.21,0/18
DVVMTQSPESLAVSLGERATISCKSSQSWLYESRNFWSVAWYQQKAGQPPKLLIYGASTREVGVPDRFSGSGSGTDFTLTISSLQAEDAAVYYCQQYHRLPLSFGGGTKVEIK,1.57 / 0.74 / 0.94 / 0.75 / 1.11 / 1.21,1.06,2/18 (1.70)
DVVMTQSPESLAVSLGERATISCKQSQVYLYESRNKNSVAWYQQKAGQPPKLLIYGASTRESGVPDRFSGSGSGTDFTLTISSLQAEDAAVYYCQQYHRLPLSFGGGTKVEIK,0.01 / 0.09 / -0.12 / -0.25 / -0.07 / 0.01,-0.05,0/18
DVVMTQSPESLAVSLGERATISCKVSQSFLYESRNKNSVAWYQQKAGQPPKLLIYGASTRESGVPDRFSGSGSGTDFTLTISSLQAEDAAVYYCQQYHRLTLSFGGGTKVEIK,-0.22 / -0.24 / -0.17 / -0.18 / -0.42 / -0.21,-0.24,0/18
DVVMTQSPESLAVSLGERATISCKSSQSVLYESRNFWSVAWYQQKAGQPPKLLIYNASTRESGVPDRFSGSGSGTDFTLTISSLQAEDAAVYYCQQYHRLPLSFGGGTKVEIK,n.d. / n.d. / n.d. / n.d. / n.d. / n.d.,n.d.,0/18
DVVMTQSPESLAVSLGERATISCKISQSWLYESRNKNSVAWYQQKAGQPPKLLIYGASTRENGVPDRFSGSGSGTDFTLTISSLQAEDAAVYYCQQYHRLPLSFGGGTKVEIK,0.12 / -0.05 / -0.17 / -0.04 / -0.04 / 0.02,-0.03,2/18 (2.76)
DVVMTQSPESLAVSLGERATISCKLMQSVLYESRNKNSIAWYQQKAGQPPKLLIYHASLREDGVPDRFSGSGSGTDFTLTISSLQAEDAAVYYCQQYHRLPLSFGGGTKVEIK,-0.14 / -0.19 / -0.32 / -0.26 / -0.14 / -0.06,-0.18,1/18 (3.21)
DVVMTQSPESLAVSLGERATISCKSSQVYDYESRNKNSVAWYQQKAGQPPKLLIYGASTRESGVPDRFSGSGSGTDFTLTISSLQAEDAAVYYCQQYHRLPLSFGGGTKVEIK,0.92 / 1.47 / 1.82 / 1.07 / 1.39 / 1.07,1.29,0/18
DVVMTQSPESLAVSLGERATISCHVSPSVLYESRNGNSVAWYQQKAGQPPKLLIYNASTRESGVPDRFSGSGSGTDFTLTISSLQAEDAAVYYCQQYHRLPLSFGGGTKVEIK,0.09 / -0.21 / -0.31 / -0.32 / -0.26 / -0.28,-0.21,0/18
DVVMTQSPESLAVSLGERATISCKLRQSTLYESRNPNSVAWYQQKAGQPPKLLIYNASTRESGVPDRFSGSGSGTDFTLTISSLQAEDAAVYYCQQYHRLPLSFGGGTKVEIK,0.37 / 0.29 / -0.01 / 0.19 / 0.23 / 0.07,0.19,1/18 (2.18)
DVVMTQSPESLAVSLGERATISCKSSGSVLFESRNKNSVAWYQQKAGQPPKLLIYNASTRESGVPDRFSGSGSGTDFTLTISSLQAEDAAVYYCQQYHRLPLSFGGGTKVEIK,0.29 / 0.20 / 0.24 / 0.01 / 0.41 / 0.53,0.28,1/18 (3.99)
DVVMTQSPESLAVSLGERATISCKLRQQTLYESRNKNSVAWYQQKAGQPPKLLIYQASTREEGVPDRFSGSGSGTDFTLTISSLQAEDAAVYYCQQYHRLPLSFGGGTKVEIK,2.42 / 1.54 / 3.13 / 1.74 / 1.43 / 1.00,1.88,0/18
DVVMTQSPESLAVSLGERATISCKSSQSYEYESRNKNSVAWYQQKAGQPPKLLIYGASTRESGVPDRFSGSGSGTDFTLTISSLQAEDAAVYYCQQYHRLPLSFGGGTKVEIK,-0.05 / -0.01 / -0.09 / -0.18 / -0.01 / 0.22,-0.02,5/18 (2.75)
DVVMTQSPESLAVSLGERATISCKVPQSVVYEGRNKNSVAWYQQKAGQPPKLLIYHASTREDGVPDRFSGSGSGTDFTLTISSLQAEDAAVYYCQQYHRLPLSFGGGTKVEIK,-0.08 / -0.06 / -0.26 / -0.22 / -0.12 / 0.01,-0.12,1/18 (3.06)
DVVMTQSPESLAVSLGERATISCKSSQSWLYESRNKNSVAWYQQKAGQPPKLLIYGASTRECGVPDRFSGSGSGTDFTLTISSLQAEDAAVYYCQQYHRLPLSFGGGTKVEIK,-0.22 / -0.20 / -0.01 / -0.37 / -0.27 / -0.07,-0.19,0/18
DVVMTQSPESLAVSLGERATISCHSSISVEYESRNKNSVAWYQQKAGQPPKLLIYNASSRESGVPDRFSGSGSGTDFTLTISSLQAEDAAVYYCQQYHRLPLSFGGGTKVEIK,0.62 / 0.34 / 0.82 / 0.39 / 0.60 / 0.33,0.52,1/18 (2.40)
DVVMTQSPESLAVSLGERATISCKSLQSVLYESRNKNSVAWYQQKAGQPPKLLIYDASTREDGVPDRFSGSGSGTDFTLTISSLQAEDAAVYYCQQYHQLPLSFGGGTKVEIK,-0.21 / -0.41 / -0.64 / 0.15 / -0.46 / 0.17,-0.23,0/18
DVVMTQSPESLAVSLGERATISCKLSQVYLYESRNKNSVAWYQQKAGQPPKLLIYGASTRESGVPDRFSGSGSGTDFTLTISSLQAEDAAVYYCQQYHRLPLSFGGGTKVEIK,-0.22 / -0.07 / -0.37 / -0.47 / -0.26 / -0.16,-0.26,1/18 (2.37)
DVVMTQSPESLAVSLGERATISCKFSQSVLYESRIKNNVAWYQQKAGQPPKLLIYNASTRESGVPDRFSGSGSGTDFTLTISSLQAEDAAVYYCQQYHRLPLSFGGGTKVEIK,-0.10 / -0.03 / -0.09 / -0.28 / -0.24 / 0.01,-0.12,0/18
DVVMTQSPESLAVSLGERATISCKQSQSVLYESRNKNSVAWYQQKAGQPPKLLIYMASTRESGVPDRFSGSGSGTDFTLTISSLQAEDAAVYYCQQYSRLPLSFGGGTKVEIK,1.18 / 1.04 / 0.30 / 1.31 / 0.71 / 0.79,0.89,0/18

Excerpt, the first 2 entries:

VL,log10 Kd (nM) by replicate,"log10 Kd (nM), mean",empty controls
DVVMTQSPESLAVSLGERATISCKSSQSELYESGNKNSVAWYQQKAGQPPKLLIYHASTREDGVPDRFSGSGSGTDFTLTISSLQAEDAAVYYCQQYHRLPLSFGGGTKVEIK,1.47 / 1.12 / n.d. / 1.75 / n.d. / 0.49,1.21,0/18
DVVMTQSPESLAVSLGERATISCKSSQSWLYESRNFWSVAWYQQKAGQPPKLLIYGASTREVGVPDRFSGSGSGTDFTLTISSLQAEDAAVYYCQQYHRLPLSFGGGTKVEIK,1.57 / 0.74 / 0.94 / 0.75 / 1.11 / 1.21,1.06,2/18 (1.70)

The parent sequence was in this pool as ten entries: three were never detected, three once, and four in most replicates, with averages from 0.34 to 2.37. A sequence measured in both rounds can read differently, since the two assays cover different ranges. As a blank, each scFv also met three strains without target: over all light chain designs, 4% of these pairings were detected, typically at 2.64 and seldom below 1.59. The control count says in how many pairings with the empty strains this scFv gave a signal, with their mean in brackets. In the paper, a design with two or fewer of six values counts as a poor binder.